Amino acid sequences for entries named in this document (tags omitted).
UniProt Q05940, whole entry: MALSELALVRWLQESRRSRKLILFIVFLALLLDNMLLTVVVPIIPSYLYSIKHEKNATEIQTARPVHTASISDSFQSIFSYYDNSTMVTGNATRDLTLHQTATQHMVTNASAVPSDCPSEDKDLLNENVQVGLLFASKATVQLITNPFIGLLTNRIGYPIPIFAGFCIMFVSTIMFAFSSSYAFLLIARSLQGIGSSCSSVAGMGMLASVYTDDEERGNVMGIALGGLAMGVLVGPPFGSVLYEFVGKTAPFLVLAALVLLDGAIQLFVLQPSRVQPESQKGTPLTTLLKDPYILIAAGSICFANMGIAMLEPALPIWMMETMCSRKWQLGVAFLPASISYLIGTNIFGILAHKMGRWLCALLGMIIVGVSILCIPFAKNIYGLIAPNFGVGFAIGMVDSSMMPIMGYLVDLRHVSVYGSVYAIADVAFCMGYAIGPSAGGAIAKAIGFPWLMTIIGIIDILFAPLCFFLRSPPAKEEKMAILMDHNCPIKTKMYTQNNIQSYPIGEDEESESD
UniProt Q01827, whole entry: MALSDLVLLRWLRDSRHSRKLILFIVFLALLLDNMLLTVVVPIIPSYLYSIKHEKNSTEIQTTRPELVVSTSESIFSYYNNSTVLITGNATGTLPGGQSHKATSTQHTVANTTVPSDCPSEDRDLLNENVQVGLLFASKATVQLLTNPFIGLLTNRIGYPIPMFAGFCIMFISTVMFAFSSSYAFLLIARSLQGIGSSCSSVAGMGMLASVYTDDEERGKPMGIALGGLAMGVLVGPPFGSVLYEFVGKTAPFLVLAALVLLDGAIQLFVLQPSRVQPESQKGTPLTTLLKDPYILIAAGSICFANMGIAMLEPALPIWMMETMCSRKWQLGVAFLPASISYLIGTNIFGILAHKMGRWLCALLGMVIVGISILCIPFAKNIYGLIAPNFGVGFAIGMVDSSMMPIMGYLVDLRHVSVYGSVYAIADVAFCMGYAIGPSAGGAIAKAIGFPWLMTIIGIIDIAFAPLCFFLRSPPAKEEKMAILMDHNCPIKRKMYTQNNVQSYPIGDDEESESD

In patent publication US20220211678A1, “USES OF (+)-A-DIHYDROTETRABENAZINE IN METHODS OF TREATING MOVEMENT DISORDER” (ADEPTIO PHARMACEUTICALS LIMITED, priority 2017, published 2022):

Assays:
VMAT2 [1] = target: T1, VMAT2 (Homo sapiens, UniProt Q05940); test: % VMAT2 blocking by PET scan 60-120 minutes after oral dosing of human volunteers (Example 1A); format: in vivo; details: average plasma levels of less than 15 ng/ml during the period of PET scanning
T1 construct: from tissue; host or cells: brain of living human volunteers, measured by PET
Text: Complete blocking of VMAT2 is considered undesirable as this can lead to unwanted side effects, such as Parkinsonism. […] The levels of VMAT2 blocking can be determined by competitive binding studies using Positron Emission Tomography (PET). By co-administering a radioactive ligand with the compound of interest at various concentrations, the proportion of binding sites occupied can be determined (see for example, Matthews et al., “Positron emission tomography molecular imaging for drug development”, Br. J. Clin. Pharmacol., 73:2, 175-186). Accordingly, the invention also provides:
(+)-α-Dihydrotetrabenazine in defined amounts was administered by oral dosing (as a solution in apple juice) to five human volunteers. In four of the volunteers, blood sample were taken at 30, 60, 120 and 180 minutes after drug administration. Blood samples were not taken from the fifth volunteer. At 60 minutes after drug administration, PET scans were initiated and these were stopped at 120 minutes after drug administration.
The experiment was carried out at dosages of 7.5 mg, 15 mg and 22.5 mg.

VMAT2 [2] = target: VMAT2 (Rattus norvegicus, UniProt Q01827); details: cited from earlier work
VMAT receptor = VMAT receptor (Rattus norvegicus, UniProt Q01827); details: in vivo, infusion to equilibrium; cited from earlier work

COc1cc2c(cc1OC)[C@H]1C[C@@H](O)[C@H](CC(C)C)CN1CC2 [(+)-α-dihydrotetrabenazine, (R,R,R)-3-isobutyl-9,10-dimethyloxy-1,3,4,5,7,11b-hexahydro-2H-pyrido[2,1-a]isoquinolin-2-ol]
% VMAT2 binding (VMAT2 [1]): at least 50% | VMAT2 binding activity among the eight dihydrotetrabenazine isomers (VMAT2 [2]): most active

COc1cc2c(cc1O[11CH3])CCN1C[C@H](CC(C)C)[C@@H](O)C[C@@H]21 [(−)-α-[^11C]-dihydrotetrabenazine]
brain distribution (VMAT receptor): uniform brain distribution
